Kd and IC50 data for 2 compounds are collected here from ChEMBL document CHEMBL5046270, “A Selective and Orally Bioavailable Quinoline-6-Carbonitrile-Based Inhibitor of CDK8/19 Mediator Kinase with Tumor-Enriched Pharmacokinetics” (J Med Chem, 2022).

Amino acid sequences for entries named in this document (tags omitted). A change or cut given only in a name is not applied to a line headed by its entry.
UniProt P49336: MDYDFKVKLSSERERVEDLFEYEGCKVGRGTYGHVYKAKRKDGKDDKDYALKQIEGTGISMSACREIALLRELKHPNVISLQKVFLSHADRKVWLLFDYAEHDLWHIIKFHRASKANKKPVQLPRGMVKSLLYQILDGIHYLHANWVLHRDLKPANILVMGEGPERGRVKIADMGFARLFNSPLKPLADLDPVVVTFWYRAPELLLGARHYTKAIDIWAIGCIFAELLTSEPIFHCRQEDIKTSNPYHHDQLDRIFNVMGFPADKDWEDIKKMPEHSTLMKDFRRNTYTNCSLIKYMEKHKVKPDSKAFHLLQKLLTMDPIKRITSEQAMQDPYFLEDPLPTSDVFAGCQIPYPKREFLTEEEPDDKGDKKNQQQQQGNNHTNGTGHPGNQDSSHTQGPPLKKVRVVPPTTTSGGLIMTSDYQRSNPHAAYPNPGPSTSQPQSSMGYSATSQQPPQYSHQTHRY

Usually Kd stands for the equilibrium constant for the complex coming apart. Broadly, the IC50 is the midpoint of a concentration-inhibition curve. Low values mean greater potency, high ones weaker potency.

Experiment [1] addresses CDK8/Cyclin C (Homo sapiens, UniProt P49336). Kind of experiment: Binding affinity to kinase tracer 236 binding to His tagged recombinant human CDK8/cyclinC assessed as dissociation constant by TR FRET based assay. Type of experiment: protein-complex assay.
A short description of experiment [2]: Inhibition of CDK8/CDK19 in MV4-11 cells and measured after 7 days by Spectra max iD5 microplate reader. Type of experiment: cell-based, Homo sapiens.

`CN1CCN(C(=O)c2ccc3cc(CCNc4ncnc5ccc(C#N)cc45)ccc3c2)CC1` [SENEXIN B]: in experiment [1], the Kd came out at 1.97 nM.
Take `CN1CCN(C(=O)c2ccc3nc(CCNc4ccnc5ccc(C#N)cc45)ccc3c2)CC1`: the IC50 in experiment [2] is above 1000 nM.
